Measured values as given in patent publication EP4821554A2, “COMPOSITIONS AND METHODS FOR THE TREATMENT OF DEPRESSION” (dated 2026).

Tests used:
[1] = system: subjects with MDD who have had an inadequate response to SSRI/SNRI treatment; test: MADRS total score, adjunctive aticaprant vs placebo, Example 1 clinical study; conditions: MADRS least squares mean change from baseline, fITT (Fig. 7B)
[2] = system: subjects with MDD who have had an inadequate response to SSRI/SNRI treatment; test: Treatment-emergent adverse events, full safety analysis set, Example 1
[3] = system: subjects with MDD who have had an inadequate response to SSRI/SNRI treatment; test: HAM-A6 total score (core symptoms of anxiety), Example 1 clinical study; conditions: change from treatment baseline at Treatment Week 6
[4] = Table 23, Treatment Period, Full Safety Analysis Set, aticaprant 10mg (N=85)

**Q.** With `Cc1cc(C)cc([C@@H]2CCCN2Cc2ccc(Oc3ccc(C(N)=O)cc3F)cc2)c1` as the molecule, how does the “onset of effect: significant treatment effect favoring aticaprant seen as early as” value [1] read?
**A.** The value was 3 week.

**Q.** And the “Subjects with 1 or more serious TEAE” value [2, 4]?
**A.** The value was 0 n (%).

**Q.** And the “Subjects with TEAE leading to death” value [2, 4]?
**A.** The value was 0 n (%).

**Q.** And the “subjects who discontinued during the treatment period due to treatment-emergent adverse events” value ([2]; due to diarrhea, nausea, vomiting and headache)?
**A.** Its value is 1 subject.

**Q.** And the “patients experienced acute cholecystitis” value ([2]; treatment period)?
**A.** The value was 0 patients.

**Q.** What about the “HAMA6 score improvement vs. placebo” value [3] of the same molecule?
**A.** Its value is “greater improvement”.
